Literature values as cited in PMC10692163, “Structure-based discovery of novel P-glycoprotein inhibitors targeting the nucleotide binding domains” (Scientific Reports, 2023).

Tested on: P-gp nucleotide binding domain
Conditions: Table S1, supplement reference list, ref [4]; cited from earlier work

COc1cc([C@H]2Oc3cc(-c4oc5cc(O)cc(O)c5c(=O)c4O)ccc3O[C@@H]2CO)ccc1O [Dehydrodilybin]
Class (known P-gp NBD inhibitor): Marginal
